We go through 2 compounds from paper PMC3378255 (ACS chemical neuroscience, 2012).

Sequences of proteins named here, by UniProt entry; tags and fusion partners are left off. A change or cut given only in a name is not applied to a line headed by its entry.
UniProt P41145: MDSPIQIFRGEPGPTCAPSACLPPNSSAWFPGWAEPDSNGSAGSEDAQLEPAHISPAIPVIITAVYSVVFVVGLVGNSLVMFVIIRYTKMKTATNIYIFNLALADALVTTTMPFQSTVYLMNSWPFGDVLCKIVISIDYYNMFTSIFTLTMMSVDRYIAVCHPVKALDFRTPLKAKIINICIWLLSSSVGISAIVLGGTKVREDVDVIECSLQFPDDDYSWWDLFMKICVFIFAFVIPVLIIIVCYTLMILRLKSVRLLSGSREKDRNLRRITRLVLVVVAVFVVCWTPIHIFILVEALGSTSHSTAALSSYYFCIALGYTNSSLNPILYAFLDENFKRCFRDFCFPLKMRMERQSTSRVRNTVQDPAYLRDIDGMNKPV

In assay [1] the target is kappa (κ) opioid receptor (KOR) (Homo sapiens, UniProt P41145). Put plainly: KOR DiscoveRx β-arrestin PathHunter assay, antagonist mode. Type of assay: cell-based. The following applies: IC50, KOR antagonist HTS campaign hits.
Another assay concerns the target KOR (Homo sapiens, UniProt P41145). Description: KOR antagonist high content imaging β-arrestin translocation assay. In kind it is cell-based. Conditions: high content imaging assays.

In turn, `Cc1ccc(S(=O)(=O)NCc2ccc(C(=O)NCCN(Cc3ccccc3)C(C)C)cc2)cc1` [3{1}, N-(2-(Benzyl(isopropyl)amino)ethyl)-4-((4-methylphenylsulfonamido)methyl)benzamide] came in with an IC50 in assay [1] of under 1000 nM.

Regarding `COc1ccc(N2CCN(CCCNC(=O)Cn3c(=O)c4cccn4c4c(C)ccnc43)CC2)cc1` [4{13}, N-(3-(4-(4-Methoxyphenyl)piperazin-1-yl)propyl)-2-(1-methyl-6-oxopyrido[2,3-e]pyrrolo[1,2-a]pyrazin-5(6H)-yl)acetamide], the “selective for the KOR over both the DOR and MOR” value on KOR was “over 10,000 fold”.

As a reminder, the IC50 is the point on the concentration scale where inhibition reaches its midpoint. A low value points to greater potency in that assay.
